# Laboratory results taken from patent US7371739B2, “Aryl fructose-1,6-bisphosphatase inhibitors” (Metabasis Therapeutics, Inc., priority 2000, dated 2008).
# Chains of the proteins cited; added tags and fusions are not shown. Residues count along the entry.
# UniProt P09467, 2-338 limits assumed: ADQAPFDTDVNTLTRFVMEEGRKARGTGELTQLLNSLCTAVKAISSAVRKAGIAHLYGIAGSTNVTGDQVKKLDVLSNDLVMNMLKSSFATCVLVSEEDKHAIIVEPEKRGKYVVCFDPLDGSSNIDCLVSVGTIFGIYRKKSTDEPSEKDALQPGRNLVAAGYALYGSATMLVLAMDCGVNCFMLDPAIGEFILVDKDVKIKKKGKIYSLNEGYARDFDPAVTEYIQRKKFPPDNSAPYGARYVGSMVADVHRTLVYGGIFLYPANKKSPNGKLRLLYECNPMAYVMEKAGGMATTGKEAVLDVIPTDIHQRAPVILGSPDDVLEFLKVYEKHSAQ
# Biological target: human liver FBPase (Homo sapiens, UniProt P09467)
# Assay: Inhibition of Human Liver FBPase
# Settings: read-out: Human Liver FBPase IC50; recombinant hlFBPase, 0.150 mM fructose-1,6-bisphosphate, pH 7.4, 37° C.
smiles,measurement,value
COC(=O)c1cc(N)cc(-c2ccc(P(=O)(O)O)o2)c1,IC50,2600 nM
